## Binding of CDR-mutated scFvs to a peptide of the spike HR2 region

From the AlphaSeq antibody data of Li et al. 2023 (doi:10.1038/s41467-023-39022-2), copy in the FLAb collection.

All variants were tested on one target, the spike HR2 peptide PDVDLGDISGINAS (SARS-CoV-2).

Parent scFv Ab-14: VH joined to VL by a 15-residue (Gly4Ser)3 linker. Changes lie in the heavy chain CDRs alone.
VH: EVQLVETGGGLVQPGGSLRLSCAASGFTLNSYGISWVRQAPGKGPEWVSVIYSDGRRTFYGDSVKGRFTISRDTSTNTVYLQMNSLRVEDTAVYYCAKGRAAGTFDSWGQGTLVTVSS
VL: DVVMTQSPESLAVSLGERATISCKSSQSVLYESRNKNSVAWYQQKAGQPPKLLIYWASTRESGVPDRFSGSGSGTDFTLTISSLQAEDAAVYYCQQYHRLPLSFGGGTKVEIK

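Phage display of a naive human antibody library on the peptide gave the parent. The variants were designed computationally from a first round of random CDR variants and then made and measured. Several design methods are mixed in this list. The scFvs were displayed on barcoded MATa yeast, the peptide on MATalpha yeast. Mating (16 h, 30 °C) was followed by selection of diploids and sequencing of their barcodes. Read counts were normalised to the haploid input and turned into Kd by a linear fit to BCL2-family pairs of known affinity, for each replicate. There are six technical replicates.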

The whole VH of each variant is written out.
This list holds designs with at most six substitutions.
Affinities are written as log10 Kd with Kd in nM; a lower number is a better binder.
Replicates are averaged; those with no signal do not enter the mean.
A pair that was not seen in that replicate is written "ND"; this usually means weak binding, but a binder can also be missed.
Entries are sorted by rising average, undetected variants last.
The parent sequence was in this pool as ten entries: three were never detected, three once, and four in most replicates, with averages from 0.34 to 2.37.
The authors' rule: three or more of the six replicates give a measured affinity, fewer mean a poor binder.
Nonspecific signal, from three strains lacking the peptide, appeared in 1% of pairings of all heavy chain designs, centred on 2.08 (5% of these signals below 0.84); values are not corrected for it.
Values of this round are not directly comparable with the first-round values of the same sequences.

VH	log10 Kd (nM) by replicate	mean log10 Kd (nM)
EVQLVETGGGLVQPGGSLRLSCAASGFDLNEYGISWVRQAPGKGPEWVSVIYADGRRTFYADSVKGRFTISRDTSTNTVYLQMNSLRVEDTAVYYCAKGNNAGTFDSWGQGTLVTVSS	-0.47 -0.72 -0.70 -0.84 -0.70 -0.81	-0.71
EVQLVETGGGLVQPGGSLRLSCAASGFDLNMYGISWVRQAPGKGPEWVSVIYSDGRRTFYGDSVKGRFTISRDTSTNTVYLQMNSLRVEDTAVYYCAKGQTAGTFDSWGQGTLVTVSS	0.39 0.51 0.29 0.60 0.23 0.46	0.41
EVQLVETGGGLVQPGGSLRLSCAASGFQLNSYGISWVRQAPGKGPEWVSVIYSDGRRTFYADSVKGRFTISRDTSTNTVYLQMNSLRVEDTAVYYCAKGRVAGTFDSWGQGTLVTVSS	0.62 0.47 0.49 0.38 0.41 0.68	0.51
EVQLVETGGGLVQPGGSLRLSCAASGFKLNSYGISWVRQAPGKGPEWVSVIYSDGRRTFYIDSVKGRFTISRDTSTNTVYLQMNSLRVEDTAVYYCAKGNAAGTFDSWGQGTLVTVSS	2.87 1.48 0.90 0.65 1.47 1.29	1.44
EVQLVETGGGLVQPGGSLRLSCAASGFTGNEYGISWVRQAPGKGPEWVSVIYSDGRRTFYGDSVKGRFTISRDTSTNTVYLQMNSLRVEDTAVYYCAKGRAAVTFDQWGQGTLVTVSS	ND ND ND 1.69 ND ND	1.69
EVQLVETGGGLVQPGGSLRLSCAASGFTLNQYGISWVRQAPGKGPEWVSVIYSDGRRTFYGDSVKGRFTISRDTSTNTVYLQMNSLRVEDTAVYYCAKGRAAITFDSWGQGTLVTVSS	ND ND ND ND ND ND	ND
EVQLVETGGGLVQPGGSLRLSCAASGWTLNSYGISWVRQAPGKGPEWVSVIYSDARRTFYDDSVKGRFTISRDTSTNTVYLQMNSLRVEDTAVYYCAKGQLAGTFDSWGQGTLVTVSS	ND ND ND ND ND ND	ND
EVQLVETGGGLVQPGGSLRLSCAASGFTLTSYGISWVRQAPGKGPEWVSVIYSDGRRTFYGDSVKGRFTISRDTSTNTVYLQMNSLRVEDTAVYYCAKGRAKQTFFDWGQGTLVTVSS	ND ND ND ND ND ND	ND
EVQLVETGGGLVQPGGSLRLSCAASGLTLNSYGISWVRQAPGKGPEWVSVIYSDGRRTFYGDSVKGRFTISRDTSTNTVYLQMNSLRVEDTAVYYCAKGRNAGTFDSWGQGTLVTVSS	ND ND ND ND ND ND	ND
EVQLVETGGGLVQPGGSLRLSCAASKFTLDSYGISWVRQAPGKGPEWVSVIFSDGRRVFYGDSVKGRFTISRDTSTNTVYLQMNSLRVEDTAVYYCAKGRAAGHFDKWGQGTLVTVSS	ND ND ND ND ND ND	ND
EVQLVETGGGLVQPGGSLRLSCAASGFTLNSYGISWVRQAPGKGPEWVSVIYSDGRRTFYGDSVKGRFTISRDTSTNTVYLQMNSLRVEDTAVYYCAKGRAAGTFLDWGQGTLVTVSS	ND ND ND ND ND ND	ND
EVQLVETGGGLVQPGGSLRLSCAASDFTLNEYGISWVRQAPGKGPEWVSVIYSDGRRTFYGDSVKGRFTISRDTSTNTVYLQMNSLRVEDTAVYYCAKGRAAVTFDMWGQGTLVTVSS	ND ND ND ND ND ND	ND
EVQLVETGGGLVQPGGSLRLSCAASGFTLNQYGISWVRQAPGKGPEWVSVIYSDGRRTFYADSVKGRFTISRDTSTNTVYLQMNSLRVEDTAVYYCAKGRAAVTFDSWGQGTLVTVSS	ND ND ND ND ND ND	ND
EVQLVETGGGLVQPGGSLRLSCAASGFTLNQYGISWVRQAPGKGPEWVSVIYSDGRRNFYSDSVKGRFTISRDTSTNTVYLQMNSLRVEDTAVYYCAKGRAAGFFDSWGQGTLVTVSS	ND ND ND ND ND ND	ND
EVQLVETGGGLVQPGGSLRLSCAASGFTLNEYGISWVRQAPGKGPEWVSVIYSDGMRTFYGDSVKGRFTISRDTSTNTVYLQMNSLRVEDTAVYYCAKGRTAGTFWSWGQGTLVTVSS	ND ND ND ND ND ND	ND

Again, the first 2 entries without any signal:

VH,log10 Kd (nM) by replicate,mean log10 Kd (nM)
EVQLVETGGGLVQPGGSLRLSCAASGFTLNQYGISWVRQAPGKGPEWVSVIYSDGRRTFYGDSVKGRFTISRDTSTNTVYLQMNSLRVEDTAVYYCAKGRAAITFDSWGQGTLVTVSS,ND ND ND ND ND ND,ND
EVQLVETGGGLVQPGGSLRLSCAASGWTLNSYGISWVRQAPGKGPEWVSVIYSDARRTFYDDSVKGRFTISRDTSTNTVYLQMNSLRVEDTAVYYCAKGQLAGTFDSWGQGTLVTVSS,ND ND ND ND ND ND,ND